Measured melting point values of organic chemicals

Data: OPERA 2.9 data sets, kmansouri/OPERA on GitHub.

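The numbers are reported measurements, compiled and curated for the OPERA QSAR suite. The files give a single number for a compound and property, which may rest on several reports. Conditions of the individual experiments are not part of the data. A value may pool stereoisomers or salt forms, and the file does not say which form was measured. Some upstream entries may be estimates or bounds without being marked so.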

Melting points are in °C.
"n/a" marks a cell with nothing listed here.
The databases behind each value are named after "via".

MP (°C)	structure (SMILES)	name	via
38	ClCc1nc(-c2ccccc2Cl)no1	5-(Chloromethyl)-3-(2-chlorophenyl)-1,2,4-oxadiazole	OCHEM
144	N#Cc1c(CCl)cn2ccccc12	2-(chloromethyl)indolizine-1-carbonitrile	OCHEM
127	CN(CCO)c1ccc(N=Nc2c(Cl)cc([N+](=O)[O-])cc2Cl)cc1	C.I. Disperse Orange 5	OCHEM
172	O=C(Nc1cccc(O)c1)c1ccccc1	Benzamide, N-(3-hydroxyphenyl)-	OCHEM
103	O=C(CCl)Nc1cccc(Oc2ccccc2)c1	2-chloro-N-(3-phenoxyphenyl)acetamide	OCHEM
61	CCN(CC)Cc1ccc(O)c2ncccc12	5-[(diethylamino)methyl]quinolin-8-ol	OCHEM
181	Cc1cc(OCC(=O)O)ccc1Cl	Acetic acid, (4-chloro-3-methylphenoxy)-	OCHEM
93	CC(=O)CC(=O)c1ccc(Br)cc1	1-(4-bromophenyl)butane-1,3-dione	OCHEM
107	O=C(O)COc1ccc(Br)cc1F	(4-Bromo-2-fluorophenoxy)acetic acid	OCHEM
272	S=c1nc[nH]c2ccsc12	thieno[3,2-d]pyrimidine-4-thiol	OCHEM
92	Cc1ccc(-c2csc(CC#N)n2)cc1	2-[4-(4-methylphenyl)-1,3-thiazol-2-yl]acetonitrile	OCHEM
71	NCc1nnc2n1CCCCC2	n/a	OCHEM
228	Nc1nc(-c2ccc(C3CCCCC3)cc2)cs1	4-(4-cyclohexylphenyl)-1,3-thiazol-2-amine	OCHEM
236.6	CCC(=O)O[C@]1(C(=O)CO)[C@@H](C)C[C@H]2[C@@H]3CCC4=CC(=O)C=C[C@]4(C)[C@@]3(F)[C@@H](O)C[C@@]21C	Betamethasone 17-propionate	eChemPortal
113	Oc1ccc(CN2CCCC2)c2cccnc12	5-(pyrrolidin-1-ylmethyl)quinolin-8-ol	OCHEM
78	O=C(c1cccnc1Cl)N1CCCC1	(2-Chloropyridin-3-yl)(pyrrolidin-1-yl)methanone	OCHEM
98.5	COc1cc(F)c(C=O)cc1F	2,5-difluoro-4-methoxybenzaldehyde	OCHEM
98	CCCn1c(=O)[nH]c2ccccc21	1-Propyl-1,3-dihydro-2H-benzimidazol-2-one	OCHEM
49	Oc1ccccc1C(=S)S	2-Hydroxydithiobenzoic acid	OCHEM
152.5	Cc1ncc[nH]c1=O	2-Hydroxy-3-methylpyrazine	OCHEM
29.5	CC(=O)c1cc(OC(F)(F)F)ccc1O	1-[2-Hydroxy-5-(trifluoromethoxy)phenyl]ethan-1-one	OCHEM
128	CCOC(=O)CN1C(=O)C(=O)c2ccccc21	n/a	OCHEM
178	O=C(O)C1CC1C(=O)O (centres undefined)	Cyclopropane-1,2-dicarboxylic acid	OCHEM
109	O=C(O)COc1cccc(Br)c1	(3-bromophenoxy)acetic acid	OCHEM
211.5	O=[N+]([O-])c1ccc2ccc3c4ccccc4cc4ccc1c2c43	3-Nitrobenzo(a)pyrene	PubChem
221	O=C(O)Cc1csc2nc(-c3ccccc3)cn12	(6-phenylimidazo[2,1-b][1,3]thiazol-3-yl)acetic acid	OCHEM
189	COc1ccc(-c2csc(N)n2)cc1Br	4-(3-bromo-4-methoxyphenyl)-1,3-thiazol-2-amine	OCHEM
118	CC(=O)c1ccc(-n2cncn2)cc1	1-[4-(1H-1,2,4-Triazol-1-yl)phenyl]ethan-1-one	OCHEM
188	Cc1cc(C)n(CC(=O)O)n1	(3,5-Dimethyl-pyrazol-1-yl)-acetic acid	OCHEM
123	CC(C)Cc1ccc(C(C)C(=O)NO)cc1 (centres undefined)	Ibuproxam	QSARDB
130	Nc1nc2c(Cl)c(Cl)ccc2s1	2-amino-4,5-dichlorobenzothiazole	OCHEM
172	CC1=C(CCC(=O)O)c2cc3[nH]c(cc4nc(cc5[nH]c(cc1n2)c(C)c5C(C)O)C(C)=C4C(C)O)c(C)c3CCC(=O)O (centres undefined)	Hematoporphyrin	OCHEM
124	Cc1cccc(OC(C)C(=O)O)c1C (centres undefined)	2-(2,3-dimethylphenoxy)propanoic acid	OCHEM
220	C[C@H]1CC[C@@H]2N(C1)C[C@@H]1[C@H]([C@@H](O)[C@H](O)[C@]3(O)[C@H]1C[C@@]14O[C@@]5(O)[C@@H](C[C@@H](O)[C@@H]31)[C@]4(C)CC[C@@H]5O)[C@]2(C)O	Germine	OCHEM
45	O=S(=O)(Cl)c1ccc2c(c1)CCCC2	5,6,7,8-Tetrahydronaphthalene-2-sulfonyl chloride	OCHEM
122	CCC(=O)Nc1ccc(C)c(N)c1	N-(3-Amino-4-methylphenyl)propanamide	OCHEM
132	CN(c1ccc(O)cc1)S(=O)(=O)c1ccccc1	N-(4-Hydroxyphenyl)-N-methylbenzenesulfonamide	OCHEM
172	NNc1cn[nH]c(=O)c1Cl	4-Chloro-5-hydrazino-3-pyridazinol	OCHEM
207	Cc1ccc(-c2nc(N)n[nH]2)cc1	5-(4-Methylphenyl)-1H-1,2,4-triazol-3-amine	OCHEM
130.5	Nc1cc(Br)cnc1Cl	5-Bromo-2-chloropyridin-3-amine	OCHEM
119	CNc1ccc(C=O)cc1[N+](=O)[O-]	4-(methylamino)-3-nitrobenzaldehyde	OCHEM
216	Cc1cc2cccc3ccc4c5ccccc5cc1c4c32	Benzo(a)pyrene, 5-methyl-	OCHEM
232	O=C(c1ccccn1)N1CCNCC1	(Piperazin-1-yl)(pyridin-2-yl)methanone	OCHEM
58	O=C(O)CSCc1ccc(Cl)cc1	[(4-chlorobenzyl)thio]acetic acid	OCHEM
111	O=S(=O)(CCCl)c1ccc(Br)cc1	Sulfone, p-bromophenyl 2-chloroethyl	OCHEM
262	O=C(O)CNC(=O)c1ccc(C(=O)NCC(=O)O)cc1	N,N'-(1,4-Phenylenedicarbonyl)diglycine	OCHEM
126	Nc1ccc(N2CCCC2=O)cc1	1-(4-Aminophenyl)pyrrolidin-2-one	OCHEM
132	O=C(O)c1ccccc1C(=O)N1CCCC1	2-(Pyrrolidine-1-carbonyl)benzoic acid	OCHEM
-36.8	CCCCCCCCN(CCCCCCCC)CCCCCCCC	Trioctylamine	OCHEM, PubChem
121	O=C(CCl)Nc1cc(C2CC2)nn1-c1ccccc1	2-chloro-N-(3-cyclopropyl-1-phenyl-1H-pyrazol-5-yl)acetamide	OCHEM
143	Clc1ccc(-n2cccn2)nn1	3-Chloro-6-(1H-pyrazol-1-yl)pyridazine	OCHEM
314	O=Cc1ccc(-c2ccc(C(=O)O)cc2)o1	4-(5-Formyl-2-furyl)benzoic acid	OCHEM
162	NS(=O)(=O)c1ccc2c(c1)CCCN2	1,2,3,4-Tetrahydroquinoline-6-sulfonamide	OCHEM
138	Cc1cc2ncc(Br)cn2n1	6-Bromo-2-methylpyrazolo[1,5-a]pyrimidine	OCHEM
144	Cc1ccc(-c2noc(CCC(=O)O)n2)cc1	3-[3-(4-methylphenyl)-1,2,4-oxadiazol-5-yl]propanoic acid	OCHEM

The 6 highest values of MP among the entries above:

structure (SMILES)	name	MP (°C)	via
O=Cc1ccc(-c2ccc(C(=O)O)cc2)o1	4-(5-Formyl-2-furyl)benzoic acid	314	OCHEM
S=c1nc[nH]c2ccsc12	thieno[3,2-d]pyrimidine-4-thiol	272	OCHEM
O=C(O)CNC(=O)c1ccc(C(=O)NCC(=O)O)cc1	N,N'-(1,4-Phenylenedicarbonyl)diglycine	262	OCHEM
CCC(=O)O[C@]1(C(=O)CO)[C@@H](C)C[C@H]2[C@@H]3CCC4=CC(=O)C=C[C@]4(C)[C@@]3(F)[C@@H](O)C[C@@]21C	Betamethasone 17-propionate	236.6	eChemPortal
O=C(c1ccccn1)N1CCNCC1	(Piperazin-1-yl)(pyridin-2-yl)methanone	232	OCHEM
Nc1nc(-c2ccc(C3CCCCC3)cc2)cs1	4-(4-cyclohexylphenyl)-1,3-thiazol-2-amine	228	OCHEM